Results as given in patent publication US8546392B2, “17Beta-hydroxysteroid dehydrogenase type 1 inhibitors for the treatment of hormone-related diseases” (Universitaet des Saarlandes, priority 2008, dated 2013).

Amino acid sequences for entries named in this document (tags omitted).
UniProt P14061, whole entry: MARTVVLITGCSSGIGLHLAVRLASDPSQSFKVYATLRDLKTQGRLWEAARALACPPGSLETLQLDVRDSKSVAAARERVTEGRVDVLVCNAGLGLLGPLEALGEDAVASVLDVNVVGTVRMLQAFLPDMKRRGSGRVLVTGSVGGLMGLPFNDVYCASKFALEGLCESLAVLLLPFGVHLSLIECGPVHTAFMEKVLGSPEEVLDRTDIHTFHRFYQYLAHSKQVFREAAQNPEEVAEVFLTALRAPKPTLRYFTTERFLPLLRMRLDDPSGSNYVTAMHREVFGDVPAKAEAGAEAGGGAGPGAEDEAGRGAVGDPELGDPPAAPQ
UniProt P37059, whole entry: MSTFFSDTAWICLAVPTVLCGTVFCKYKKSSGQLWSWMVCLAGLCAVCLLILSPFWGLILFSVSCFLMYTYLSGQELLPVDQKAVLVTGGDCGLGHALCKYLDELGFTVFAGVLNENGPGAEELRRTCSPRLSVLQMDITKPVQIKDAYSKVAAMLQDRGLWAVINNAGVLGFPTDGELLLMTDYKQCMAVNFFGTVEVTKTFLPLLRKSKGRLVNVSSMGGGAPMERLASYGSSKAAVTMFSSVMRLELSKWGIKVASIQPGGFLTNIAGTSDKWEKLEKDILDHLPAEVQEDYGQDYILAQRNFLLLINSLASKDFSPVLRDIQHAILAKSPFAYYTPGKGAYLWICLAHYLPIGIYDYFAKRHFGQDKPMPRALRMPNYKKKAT
UniProt P05177, whole entry: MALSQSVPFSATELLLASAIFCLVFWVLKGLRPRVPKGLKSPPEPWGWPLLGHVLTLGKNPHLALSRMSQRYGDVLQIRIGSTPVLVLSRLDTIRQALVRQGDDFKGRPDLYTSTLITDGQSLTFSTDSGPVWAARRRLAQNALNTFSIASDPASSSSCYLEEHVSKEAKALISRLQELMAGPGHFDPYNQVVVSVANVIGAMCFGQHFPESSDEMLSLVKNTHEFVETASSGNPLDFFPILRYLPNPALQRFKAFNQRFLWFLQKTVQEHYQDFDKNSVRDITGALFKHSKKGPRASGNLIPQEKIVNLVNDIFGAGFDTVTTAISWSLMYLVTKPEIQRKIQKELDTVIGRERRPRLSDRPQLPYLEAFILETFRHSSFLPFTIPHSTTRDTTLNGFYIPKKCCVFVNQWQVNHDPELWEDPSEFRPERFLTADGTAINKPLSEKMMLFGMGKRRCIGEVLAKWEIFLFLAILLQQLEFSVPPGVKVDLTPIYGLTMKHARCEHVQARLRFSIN
UniProt P20813, whole entry: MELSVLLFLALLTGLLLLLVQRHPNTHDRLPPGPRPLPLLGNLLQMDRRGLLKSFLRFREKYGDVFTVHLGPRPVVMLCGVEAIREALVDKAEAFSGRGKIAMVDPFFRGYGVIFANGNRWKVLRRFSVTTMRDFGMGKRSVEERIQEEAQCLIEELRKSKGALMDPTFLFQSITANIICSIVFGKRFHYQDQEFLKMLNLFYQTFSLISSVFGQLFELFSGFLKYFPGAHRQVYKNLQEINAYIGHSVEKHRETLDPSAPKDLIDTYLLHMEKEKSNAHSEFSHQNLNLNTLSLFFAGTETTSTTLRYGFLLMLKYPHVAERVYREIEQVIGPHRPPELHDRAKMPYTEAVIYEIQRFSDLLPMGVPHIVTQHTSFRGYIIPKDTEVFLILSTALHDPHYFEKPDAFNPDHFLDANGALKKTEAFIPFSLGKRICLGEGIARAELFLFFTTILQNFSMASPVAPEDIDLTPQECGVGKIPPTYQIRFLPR
UniProt P11712, whole entry: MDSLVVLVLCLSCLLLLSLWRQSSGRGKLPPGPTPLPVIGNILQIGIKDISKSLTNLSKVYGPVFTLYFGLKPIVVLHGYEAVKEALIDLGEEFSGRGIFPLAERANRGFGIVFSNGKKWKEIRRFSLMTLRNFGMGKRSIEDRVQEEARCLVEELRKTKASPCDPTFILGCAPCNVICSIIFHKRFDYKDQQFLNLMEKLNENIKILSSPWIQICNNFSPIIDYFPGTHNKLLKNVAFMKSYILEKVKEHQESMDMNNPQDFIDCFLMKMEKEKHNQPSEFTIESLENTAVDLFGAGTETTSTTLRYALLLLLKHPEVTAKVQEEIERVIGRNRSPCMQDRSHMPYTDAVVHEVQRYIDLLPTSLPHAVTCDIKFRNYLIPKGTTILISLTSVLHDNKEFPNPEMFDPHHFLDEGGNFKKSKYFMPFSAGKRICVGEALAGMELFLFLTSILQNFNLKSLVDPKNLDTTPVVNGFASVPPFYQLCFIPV
UniProt P33261, whole entry: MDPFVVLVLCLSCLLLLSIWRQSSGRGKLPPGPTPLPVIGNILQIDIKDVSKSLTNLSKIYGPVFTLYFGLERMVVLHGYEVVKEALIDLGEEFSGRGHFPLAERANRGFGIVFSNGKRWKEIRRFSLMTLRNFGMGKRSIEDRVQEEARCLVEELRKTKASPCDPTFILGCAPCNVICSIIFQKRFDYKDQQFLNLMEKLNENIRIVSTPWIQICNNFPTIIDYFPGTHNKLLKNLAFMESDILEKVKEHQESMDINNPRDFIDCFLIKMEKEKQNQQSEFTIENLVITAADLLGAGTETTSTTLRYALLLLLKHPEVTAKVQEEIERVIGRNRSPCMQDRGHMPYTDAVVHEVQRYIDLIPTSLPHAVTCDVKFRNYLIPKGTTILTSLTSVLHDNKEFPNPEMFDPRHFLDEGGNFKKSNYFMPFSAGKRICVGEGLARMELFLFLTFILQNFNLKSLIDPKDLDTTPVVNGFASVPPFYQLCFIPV
UniProt P10635, whole entry: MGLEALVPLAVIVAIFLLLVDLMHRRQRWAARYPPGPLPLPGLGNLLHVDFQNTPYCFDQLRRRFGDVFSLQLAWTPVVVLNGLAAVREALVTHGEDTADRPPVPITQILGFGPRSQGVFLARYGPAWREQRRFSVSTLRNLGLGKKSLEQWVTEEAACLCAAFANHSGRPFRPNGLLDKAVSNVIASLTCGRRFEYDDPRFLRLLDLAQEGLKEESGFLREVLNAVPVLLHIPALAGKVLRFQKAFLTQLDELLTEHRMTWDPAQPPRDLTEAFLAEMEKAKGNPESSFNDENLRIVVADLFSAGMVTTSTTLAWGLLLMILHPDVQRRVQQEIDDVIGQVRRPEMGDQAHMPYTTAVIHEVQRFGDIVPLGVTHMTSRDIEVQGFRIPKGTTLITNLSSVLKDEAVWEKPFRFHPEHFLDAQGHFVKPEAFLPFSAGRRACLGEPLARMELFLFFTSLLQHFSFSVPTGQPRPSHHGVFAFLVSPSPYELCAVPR
UniProt P08684, whole entry: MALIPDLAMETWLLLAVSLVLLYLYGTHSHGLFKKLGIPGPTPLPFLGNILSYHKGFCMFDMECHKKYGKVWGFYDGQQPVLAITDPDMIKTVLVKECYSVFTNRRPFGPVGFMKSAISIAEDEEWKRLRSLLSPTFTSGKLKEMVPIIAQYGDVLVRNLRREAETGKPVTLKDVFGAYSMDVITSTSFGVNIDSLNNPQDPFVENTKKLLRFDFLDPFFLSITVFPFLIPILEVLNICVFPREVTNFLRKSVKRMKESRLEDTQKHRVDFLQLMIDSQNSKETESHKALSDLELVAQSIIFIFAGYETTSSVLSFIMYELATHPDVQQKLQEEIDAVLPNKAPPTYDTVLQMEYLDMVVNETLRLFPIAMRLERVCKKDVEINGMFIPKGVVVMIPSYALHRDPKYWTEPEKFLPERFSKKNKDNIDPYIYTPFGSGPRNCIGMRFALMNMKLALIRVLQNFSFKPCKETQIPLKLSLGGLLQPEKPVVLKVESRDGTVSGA

What was measured:
17β-HSD1 [1] = target: T1, 17β-HSD1 (Homo sapiens (Human), UniProt P14061); experiment: 17β-HSD1 test assay (recombinant protein from Sf9 insect cells, 3H-estrone/NADPH); details: inhibitor 100 nM
CaCo-2 cells = experiment: CaCo-2 assay (transport experiments)
[2] = Test for metabolic stability, liver microsomes; details: rat liver microsomes
17β-HSD1 [3] = target: T1, 17β-HSD1
17β-HSD2 = 17β-HSD2 (Homo sapiens (Human), UniProt P37059)
CYP1A2 = CYP1A2 (Homo sapiens (Human), UniProt P05177)
CYP2B6 = CYP2B6 (Homo sapiens (Human), UniProt P20813)
CYP2C9 = CYP2C9 (Homo sapiens (Human), UniProt P11712)
CYP2C19 = CYP2C19 (Homo sapiens (Human), UniProt P33261)
CYP2D6 = CYP2D6 (Homo sapiens (Human), UniProt P10635)
CYP3A4 = CYP3A4 (Homo sapiens (Human), UniProt P08684)

Cc1nnc(NS(=O)(=O)c2cccc(-c3c(O)ccc4cc(-c5cccc(O)c5)ccc34)c2)s1
HSD1 100 nM (% inhibition) (17β-HSD1 [1]): 82.2% | mass balance [% ± SD] (CaCo-2 cells): 23.0 ± 2.3% | Permeability (CaCo-2 cells; class in words): moderate | final basolateral concentration [μM ± SD] (CaCo-2 cells; initial donor concentration 50 μM): 0.9 ± 0.08 µM | Half life [2]: 7.497 h | Intrinsic clearance (μl/min/mg protein) [2]: 10.3 μl/min/mg protein | Slope (−k) [2]: −0.002 | IC50 (17β-HSD1 [3]): 0.03 µM | selectivity ratio (17β-HSD1 [3]): 6.5 | IC50 (17β-HSD2): 0.195 µM | IC50 (CYP1A2): 37.5 µM | IC50 (CYP2B6): 13.6 µM | IC50 (CYP2C9): 0.03 µM | IC50 (CYP2C19): 8.83 µM | IC50 (CYP2D6): 39.4 µM | IC50 (CYP3A4): 2.25 µM
